Experimental data taken from patent US6392119.

Target: reconstituted barnase (bn3 + bn5 expressed in the same cell) (Bacillus amyloliquifaciens)
Assay: cell-based or functional assay
Details: scale: (measured cpm minus background) × .001 per tobacco leaf disk

## barstar (from UniProt P11540 1-90)
  Luciferase activity, bn3 + bn5 + barstar, average: 540
  Luciferase activity, bn3 + bn5 + barstar, shot 1: 89
  Luciferase activity, bn3 + bn5 + barstar, shot 2: 133
  Luciferase activity, bn3 + bn5 + barstar, shot 3: 143
  Luciferase activity, bn3 + bn5 + barstar, shot 4: 100
  Luciferase activity, bn3 + bn5 + barstar, shot 5: 165
  Luciferase activity, bn3 + bn5 + barstar, shot 6: 959
  Luciferase activity, bn3 + bn5 + barstar, shot 7: 1260
  Luciferase activity, bn3 + bn5 + barstar, shot 8: 1360
  Luciferase activity, bn3 + bn5 + barstar, shot 9: 977
  Luciferase activity, bn3 + bn5 + barstar, shot 10: 219
